{
  "source": "patent US7770577B2",
  "about": "“Methods and devices for treating lung dysfunction” (priority 2001, dated 2010)",
  "test_system": "CF airway epithelial cell cultures",
  "test": "SCN− efflux in CF airway epithelial air-liquid interface cultures",
  "details": "14C-SCN− 70 μM basolateral, 18-24 h; three CF patients vs three non-CF cultures",
  "description": "J. Respir. […] Experiments comparing non-CF and CF cells were performed with cultures grown simultaneously and matched in passage number, the number of cells plated, and days in culture. […] To initiate experiments, apical surfaces of the cultures were rapidly washed three times with Dulbecco's PBS (50 μl for 6.5 mm filters or 500 μl for 24 mm filters) containing 100 μM amiloride. Following a third wash, additional aliquots were placed on the apical surface for sequential 2 min incubations at 37° C. in humidified 5% CO2.\nBronchial epithelial cells were obtained from either CF or non-CF lungs at the time of transplant or organ donation. Cells were passaged twice (thereby de-differentiated) and then cultured at an air-liquid interface for re-differentiation. […] J. Respir. […] Following three rapid PBS washes of the apical surface, additional PBS aliquots were placed on the apical surface for sequential 2 min incubations. […] Airway epithelial cell cultures from three separate CF patients were compared to three non-CF control cultures.",
  "data": [
    {"compound": "N#CS", "note": "[SCN^−, thiocyanate]", "values": [
      {"measurement": "reduction of SCN^− efflux rates in CF cells versus non-CF control cultures", "value": "~4", "unit": "fold"}
    ]}
  ]
}
